The text below walks through data of US20240131198A1, “RATIOMETRIC BIOSENSOR TATTOOS AND USE THEREOF FOR REAL TIME MEASUREMENTS” (priority 2022, published 2024).

The conditions of data set [1]: water-saturated n-octanol / phosphate buffer pH 6.8, shake-flask.
For data set [2] the following is noted: 50 μM/500 μM of FeSO4:H2O2, 10 μM dye.
Another data set has as its system rat skin. The experiment in a line: Delivery of Cy5-PEG/Cy3-PEG microneedle tattoo to the shaved skin of living rats. The note with it: MN delivery, fluorescence stereomicroscopy several hours after application.
The conditions of data set [3]: PEGylated with 5 kDa MeO-PEG-NH2.

Consider Cyanine-3-PEG [Cy3-PEG], for which, in data set [1], the “log P” value is −1.03±0.02. Further, the “signal retained when exposed to ROS” value in data set [2] was “over 75%”. Besides, the “diffusion in the skin” value in the data set with rat skin was “clearly diffused in the skin”.

For the substance Cyanine-5-PEG [Cy5-PEG], the “log P” value in data set [1] is given as −1.22±0.07. For the same substance, the water solubility result in data set [3] was “water-soluble”. In addition, in the data set on rat skin, the “diffusion in the skin” value is reported as “clearly diffused in the skin”.

As a reminder, the log P is the decadic logarithm of the partition coefficient of the neutral form, usually between octanol and water.
